Measurements reported in PubChem BioAssay (EPA / NIEHS).
The entries are a selection whose mix differs from that of the whole data set. Activity calls are given as the source filed them. Rule for the calls: active = hit-call score of the fitted dose curve at least 0.9, where 1 is the maximum; inactive = score below 0.9.

Experiment: ATG_PPRE_CIS: Attagene CIS-FACTORIAL HepG2 Assay for human Peroxisome Proliferator-activated Response Element (PPRE) (AID 2282958)
Settings: HepG2 PPRE cis-element reporter, Attagene transcription factor profiling; actives raise or lower the signal

SMILES	AC50	outcome
C[C@H]1[C@H](c2ccc(Cl)cc2)SC(=O)N1C(=O)NC1CCCCC1	active: 12.3 µM	–
CCCC=NO	–	inactive
Nc1ccccc1C(=O)OCCc1ccccc1	–	inactive
CN(N=O)C(N)=O	–	inactive
COC(C)(C)CCC[C@H](C)C/C=C/C(C)=C/C(=O)OC(C)C	–	inactive
COc1ccc(C=O)cc1OC	–	inactive
Nc1ccc2ccccc2c1	–	inactive
CCCCCCCCBr	–	inactive
CCCCCOC(=O)c1ccccc1C(=O)OCCCCC	–	inactive
O=[N+]([O-])c1ccc(O)c([N+](=O)[O-])c1	–	inactive
O=C(O)CF	–	inactive
O=C(CBr)c1ccc(O)cc1	–	inactive
S=c1[nH]c2ccccc2[nH]1	–	inactive
Cc1ccc(N)cc1Cl	–	inactive
COc1ccccc1N	–	inactive
O=c1nc(O)n(Cl)c(=O)n1Cl	–	inactive
CS(=O)(=O)NC(=O)c1cc(Oc2ccc(C(F)(F)F)cc2Cl)ccc1[N+](=O)[O-]	–	inactive
CC(C)COC(=O)c1ccccc1C(=O)OCC(C)C	active: 83.1 µM	–

SMILES	AC50	outcome
O=C(O)C(Br)Br	–	inactive
Nc1ccc([N+](=O)[O-])cc1	–	inactive
CCC(=O)Nc1ccc(Cl)c(Cl)c1	–	inactive
CSc1nc(NC(C)C)nc(NC(C)C)n1	active: 38.5 µM	–
CCNc1nc(Cl)nc(NCC)n1	–	inactive
NNCCO	–	inactive
CC(c1ccc(O)cc1)c1ccc(O)cc1	active: 100 µM	–
CCOP(=O)(OCC)SCCSCC	–	inactive
CC(C)(O)C#N	–	inactive
COP(=S)(OC)Oc1ccc(S(=O)(=O)N(C)C)cc1	–	inactive
CC(C)CP(=S)(S)CC(C)C	–	inactive
Cl/C=C\C[N+]12CN3CN(CN(C3)C1)C2	–	inactive
O=C(O)Cc1ccccc1	–	inactive
Cc1cc(-c2ccc(N)c(C)c2)ccc1N	–	inactive
CCCCN(CCCC)N=O	–	inactive
O=[N+]([O-])c1ccc(Nc2ccccc2)cc1	active: 86.3 µM	–
O=[N+]([O-])c1ccccc1O	–	inactive
